Measured affinities in a library of Ab-95 light chain variants

The target is the same throughout: PDVDLGDISGINAS, from the HR2 region of SARS-CoV-2 spike.

Parent: Ab-95, a human scFv built as VH, three GGGGS repeats, VL. Only the CDRs of the light chain vary.
VH: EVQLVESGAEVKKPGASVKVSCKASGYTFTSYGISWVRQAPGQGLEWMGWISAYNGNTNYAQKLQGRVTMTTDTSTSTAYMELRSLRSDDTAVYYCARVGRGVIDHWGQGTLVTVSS
VL: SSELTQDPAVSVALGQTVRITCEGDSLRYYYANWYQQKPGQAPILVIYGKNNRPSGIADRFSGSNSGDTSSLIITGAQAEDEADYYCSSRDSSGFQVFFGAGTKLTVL

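The starting antibody came from a phage panning campaign against this peptide. The library (AAYL52) carries one to three amino acid substitutions per variant, with no insertions or deletions. AlphaSeq pools MATa yeast showing the antibodies with MATalpha yeast showing the peptide. The frequency of each diploid, read from paired DNA barcodes, reflects how well the two displayed proteins bind. Scores were corrected for input abundance and mapped to Kd with protein pairs of known affinity run in the same pool. Each pool was mated in three replicate cultures.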

The parent's light chain CDRs are EGDSLRYYYAN, GKNNRPS, SSRDSSGFQVF; each variant's own CDRs replace them letter for letter. Every variant below is changed at S92 of the VL (sequential numbering). Scale: log10 of Kd in nM, estimated from mating counts; low values are strong binders. An entry "ND" has no value in the source: the pair was not observed among the diploids in that replicate. This suggests poor binding but is not conclusive.

| CDR-L1 | CDR-L2 | CDR-L3 | replicates, log10 nM |
|---|---|---|---|
| EGPFLRYYYAN | GKNNRPS | SSRDESGFQVF | 3.86 / 3.11 / 3.42 |
| EGDSLRYQYAN | GKNTRPS | SSRDRSGFQVF | 1.62 / 1.19 / 1.46 |
| EGDSLRYYYAM | GKYNRPS | SSRDTSGFQVF | ND / ND / ND |
| EGDSLRYYYAN | GKNNRPS | SSRDTSGDQVR | 1.93 / 1.82 / 1.58 |
| EGESLRYYYAC | GKNNRPS | SSRDISGFQVF | ND / ND / ND |
| EGDSLRYYMAK | GKNNRPS | SSRDCSGFQVF | 2.49 / 2.52 / 1.50 |
| EGDSLRDYSAN | GKNNRPS | SSRDTSGFQVF | 1.34 / 1.08 / 0.58 |
| EGDSLRYYYAN | GKNNRVS | SSRDISLFQVF | 3.03 / 3.58 / 2.68 |
| EGDNLRYYYAN | GKYNRPS | SSRDCSGFQVF | 3.00 / ND / ND |
| EGKSLRYYYAN | GKNNRPS | SSRDVSGFTVF | 1.78 / 1.71 / 2.12 |
| EGTSLRYWYAN | GKNNRPS | SSRDLSGFQVF | 3.43 / 3.21 / 3.21 |
| EGDSLRYYYAN | IKNNRPS | SSRDHSGFQVF | ND / 4.10 / ND |
| EGDSYRYYYAN | GKNNRPS | SSRDYSGMQVF | ND / ND / ND |
| EMDSLRYKYAN | GKNNRPS | SSRDQSGFQVF | 3.47 / 3.03 / 3.86 |
| EGDSLRYSYAN | GKNNRPS | SSREDSGFQVF | 2.12 / 2.35 / 1.87 |
| EGDSLRYYYHY | GKNNRPS | SSRDYSGFQVF | ND / 4.87 / 4.22 |
| EGDSLRYYYAN | GKNNRPS | SSRDTSGTQGF | 2.22 / 2.09 / 2.11 |
| EGYSLRYYYAN | GKNNRPS | SSQDKSGFQVF | ND / ND / ND |
| EGDSLRYYCAN | GKNNRPS | SSRDQSGFQHF | ND / ND / ND |
| EGDSLRYYYAN | GKNNRPS | SVRDFPGFQVF | ND / ND / 3.76 |
| EGDSLWYYYAN | GKNNRPS | SSDDVSGFQVF | ND / ND / ND |
| EGDSLRYYYAN | GKNNRPS | SSRDASFFKVF | 2.39 / 2.95 / 3.81 |
| EGDSLRYYYAN | GKNNRWS | SSRDCDGFQVF | ND / 3.46 / 2.92 |
| EGDSLRYYYVN | GKWNRPS | SSRDCSGFQVF | 4.66 / ND / ND |
| ECDSLRYYYAN | GKNNRPS | SSRDRSGHQVF | ND / ND / ND |
| EGDSLRYYYAN | GKNNCPS | SCRDLSGFQVF | 4.57 / 4.86 / ND |
| EGDSLRYYKAN | GKNNRHS | SSRDCSGFQVF | 3.66 / 3.15 / 3.08 |
| EGDHLEYYYAN | GKNNRPS | SSRDWSGFQVF | ND / 3.93 / ND |
| EGDSLRYYYAN | GKNNRPS | TSRDESGFQVF | 3.88 / ND / ND |
| EHDSLRYNYAN | GKNNRPS | SSRDASGFQVF | 0.92 / 0.82 / 0.14 |
| EGDSLRYYYAG | GKNNRPS | NSRDYSGFQVF | ND / 3.85 / ND |
| EGDSLRNYYAN | GKNGRPS | SSRDHSGFQVF | 2.52 / 2.69 / 2.86 |
| EGDSLCYYYAN | GKNNRPS | SSRDVKGFQVF | 2.95 / 4.03 / 2.91 |
| EGDSLRCYYAN | GKNNRPL | SSRDVSGFQVF | ND / 3.56 / 3.91 |
| EGDSLRYYYAN | GKNNRPS | SSRDIVGFQVL | 3.06 / 3.54 / 3.73 |
| EGDSLRYYYAN | GWNNRPS | SSRDGSGFQNF | 5.09 / 4.31 / ND |
| EGDSLRRYYAN | GKSNRPS | SSRDDSGFQVF | 2.73 / ND / 3.09 |
| HGDSLRYYYAN | GKNNRWS | SSRDVSGFQVF | ND / 2.66 / 2.49 |
| EGDSLRYYYAN | GKNNRPS | SSRDESGFQVF | 1.69 / 1.57 / 1.34 |

The first 3 entries again:

| CDR-L1 | CDR-L2 | CDR-L3 | replicates, log10 nM |
|---|---|---|---|
| EGPFLRYYYAN | GKNNRPS | SSRDESGFQVF | 3.86 / 3.11 / 3.42 |
| EGDSLRYQYAN | GKNTRPS | SSRDRSGFQVF | 1.62 / 1.19 / 1.46 |
| EGDSLRYYYAM | GKYNRPS | SSRDTSGFQVF | ND / ND / ND |

For reference, the parent read 2.31 as the reference entry and 2.25 as a member of this library. Nonspecific signal, from three strains lacking the peptide, appeared in 28% of pairings of library AAYL52, centred on 3.91 (5% of these signals below 2.90); values are not corrected for it.

From the AlphaSeq antibody data of Engelhart et al. 2022 (doi:10.1038/s41597-022-01779-4), copy in the FLAb collection.